Reference: paper PMC2662044 (European journal of medicinal chemistry, 2008)

By UniProt entry, the sequences of proteins in these tests, tags left out.
UniProt P22460, whole entry: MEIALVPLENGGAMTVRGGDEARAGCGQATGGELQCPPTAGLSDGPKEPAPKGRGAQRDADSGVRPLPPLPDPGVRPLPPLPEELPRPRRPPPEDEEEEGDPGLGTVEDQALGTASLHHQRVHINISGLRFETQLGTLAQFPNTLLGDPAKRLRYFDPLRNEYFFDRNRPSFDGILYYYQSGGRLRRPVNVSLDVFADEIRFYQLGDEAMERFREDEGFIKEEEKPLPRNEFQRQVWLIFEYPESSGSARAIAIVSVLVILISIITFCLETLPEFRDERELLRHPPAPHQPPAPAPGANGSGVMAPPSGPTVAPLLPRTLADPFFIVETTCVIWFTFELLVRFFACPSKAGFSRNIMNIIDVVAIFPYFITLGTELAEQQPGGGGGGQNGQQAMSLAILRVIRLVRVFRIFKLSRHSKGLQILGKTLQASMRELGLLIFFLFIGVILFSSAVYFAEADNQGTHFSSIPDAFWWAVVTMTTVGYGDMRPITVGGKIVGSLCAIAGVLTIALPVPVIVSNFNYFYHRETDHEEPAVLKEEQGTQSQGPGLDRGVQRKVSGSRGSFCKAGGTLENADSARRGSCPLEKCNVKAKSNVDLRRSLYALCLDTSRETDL

Molecular target: Kv1.5 (Homo sapiens, UniProt P22460)
Test: Kv1.5 inhibition, whole-cell patch-clamp, currents recorded from MEL-C88 cells
Format: cell-based
Conditions: Table 1

SMILES | Selectivity IC50 (Kv1.5)/IC50 (Kv1.3)
c1ccc(OCCCCOc2cccc3cnccc23)cc1 [Compound 18, 5-(4-Phenoxybutoxy)isoquinoline] | 1
Cc1cc(=O)c2c(OCCCCOc3ccccc3)c3ccc(=O)oc3cc2o1 [Compound 59, 2,6-Dihydro-8-methyl-5-(4-phenoxybutoxy)pyrano[3,2-g][1]benzopyran-2,6-dione] | 1
